In this assay the target is T1, CEGPCR5 (Caenorhabditis elegans, UniProt Q18179).
T1 sequence (Q18179 1-402): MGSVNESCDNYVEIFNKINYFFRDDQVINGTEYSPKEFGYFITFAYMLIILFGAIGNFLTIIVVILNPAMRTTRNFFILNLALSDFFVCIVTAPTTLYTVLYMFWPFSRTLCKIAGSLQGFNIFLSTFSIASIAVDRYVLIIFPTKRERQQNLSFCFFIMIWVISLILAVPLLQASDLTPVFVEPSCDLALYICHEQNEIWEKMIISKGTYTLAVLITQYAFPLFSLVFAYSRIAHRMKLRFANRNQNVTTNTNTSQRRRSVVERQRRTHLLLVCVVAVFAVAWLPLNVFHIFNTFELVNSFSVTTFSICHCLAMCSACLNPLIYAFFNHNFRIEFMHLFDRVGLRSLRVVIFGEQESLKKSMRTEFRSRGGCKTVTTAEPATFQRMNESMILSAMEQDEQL
The assay is described as follows: [35S]GTPγS binding assay, CEGPCR5 expressed in CHO cells. It is filed as biochemical, C. elegans. How it is done:
Recombinant pCR3.1 clones encoding invertebrate GPCR-like receptors were transformed into wild-type CHO-K1 cells and functional expression was achieved using a temperature-shift incubation protocol. The CHO-K1 cells were cultured at 37° C. in a humidified atmosphere of 5% CO2 in air in DMEM medium supplemented with 10% heat-inactivated fetal bovine serum (i.e., FBS), 10 μg/ml gentamicin, and 0.1 mM nonessential amino acids to give complete DMEM medium. Additionally, for incubations at temperatures lower than 37° C., the medium was fortified with 10 mM HEPES (pH 7.4). Cells were transfected with recombinant pCR3.1 clones containing GPCR-like receptor DNAs, using LipofectAMINE PLUS™, essentially according to the manufacturer's instructions. […] In separate plastic tubes, PLUS (20 μl/plate; Life Technologies) was added to 0.75 ml/plate of recombinant plasmid DNA in OptiMEM (5 μg/plate; Gibco/BRL—Life Technologies), mixed and incubated at room temperature for 15 minutes. Separately, LipofectAMINE (30 μl/plate) was mixed with 0.75 ml OptiMEM and added to the pre-complexed DNA/PLUS mixture and incubated at room temperature for 15 minutes. The culture medium was then replaced with serum-free transfection medium (DMEM, 5 ml/plate). The DNA-PLUS-LipofectAMINE complex was then added to the plates (1.5 ml/plate) and mixed gently into the medium, followed by a 3 hour incubation at 37° C. in 5% CO2. At this time, the medium was supplemented with complete DMEM medium containing 20% FBS (6.5 ml/plate) and incubation was continued at 37° C. in 5% CO2. After a total of 24 hours at 37° C. in 5% CO2, the medium was replaced with complete DMEM medium fortified with 10 mM HEPES (10 ml/plate) and the cells were moved to an incubator maintained at 28-30° C. in a humidified atmosphere of 5% CO2 in air. The incubation continued for an additional 24 hours, typically at the lower temperature indicated above. A plasmid encoding Green Fluorescent Protein (i.e., GFP, 4 μg/plate) was used for transient GFP expression in CHO-K1 cells to estimate the transfection yields under the same conditions as used for GPCR-like receptor polynucleotides.
To assess expression, membranes were prepared from transfected CHO-K1 cells. Transfected cells were washed once with ice-cold Dulbecco's phosphate-buffered saline (i.e., PBS), 5 ml per 10 cm plate, and the cells were scraped into 5 ml of the same buffer. Cell suspensions from multiple plates were combined and centrifuged at 500×g for 10 minutes at 4° C. The cell pellet was reconstituted in ice-cold TEE (25 mM Tris, pH 7.4, 5 mM EGTA, 5 mM EDTA). […] Membrane protein concentration was determined using the BCA Protein Assay Reagent from Pierce (Rockford, Ill.), with bovine serum albumin (i.e., BSA) as a standard. […]

Where [1] appears, read: EC50 range, Table 9, one range for the group of peptides.

pEC50: −log10 of the molar value. Read-outs that look alike come from different tables or passages of the source.

Compound `CC[C@H](C)[C@H](NC(=O)[C@@H](N)Cc1ccc(O)cc1)C(=O)N[C@@H](CCCNC(=N)N)C(=O)N[C@@H](Cc1ccccc1)C(N)=O` [YIRF-NH2] had a negative logarithm of the EC50 (pEC50) of 5.10 to 6.00. Consider `CC(C)C[C@H](NC(=O)[C@@H](N)Cc1ccc(O)cc1)C(=O)N[C@@H](CCCNC(=N)N)C(=O)N[C@@H](Cc1ccccc1)C(N)=O` [YLRF-NH2], for which the pEC50 under setting [1] is 6.10 to 7.10. On the same count and under the same terms, the same measure for `CSCC[C@H](NC(=O)[C@@H](N)Cc1ccccc1)C(=O)N[C@@H](CCCN=C(N)N)C(=O)N[C@@H](Cc1ccccc1)C(N)=O` [FMRF-NH2]: 6.10 to 7.10. With `CC(C)C[C@H](NC(=O)[C@@H](N)Cc1ccccc1)C(=O)N[C@@H](CCCNC(=N)N)C(=O)N[C@@H](Cc1ccccc1)C(N)=O` [FLRF-NH2], the negative logarithm of the EC50 (pEC50) is 6.10 to 7.10.

For the origin of these results see US6632621B1, “G protein-coupled receptor-like receptors and modulators thereof” (priority 1999, dated 2003).
